What was measured:
[1] = system: k-ras mutated cancer cell lines (MDA-MB-231, HCT116, SW837 and DLD-1); assay: Cytotoxicity in k-ras mutated cancer cell lines; conditions: 72 hours; for cytotoxic activity in k-ras mutated cancer cell lines: 0 to 20 μM
[2] = system: k-ras wild-type (WT) cancer cell lines (H322, BT-20 and BxPC-3); assay: Cytotoxicity of TKI or EB-lytic in k-ras wild-type cancer cell lines; conditions: 72 hours; for cytotoxic activity in k-ras WT cancer cell lines: H322, BT-20 and BxPC-3, 0 to 20 μM

| Structure (SMILES) | cytotoxic activity in k-ras mutated cancer cell lines [1] | cytotoxic activity in k-ras WT cancer cell lines [2] | sensitivity of k-ras mutated cancer cell lines ([1]; erlotinib 0 to 80 μM, anti-EGFR antibody 0 to 20 μg/ml) | sensitivity of k-ras WT cancer cell lines ([2]; H322 and BT-20, erlotinib 0 to 80 μM, anti-EGFR antibody 0 to 20 μg/ml) |
| --- | --- | --- | --- | --- |
| COc1cc2ncnc(Nc3cccc(Br)c3)c2cc1OC [PD153035] | resistant | insufficient |  |  |
| C#Cc1cccc(Nc2ncnc3cc(OCCOC)c(OCCOC)cc23)c1 [erlotinib] | resistant | insufficient | resistant | sensitive |
| COc1cc2ncnc(Nc3ccc(F)c(Cl)c3)c2cc1OCCCN1CCOCC1 [gefitinib] | resistant | insufficient |  |  |

Reference: patent US8940863B2, “Selective anticancer chimeric peptides which bind neuropilin receptor” (Stella Pharma Corporation, priority 2008, dated 2015)
